Here are results for 3 compounds from publication PMC4076021 (ACS chemical biology, 2014).

The target in this assay is GST-LSD1 (Homo sapiens, UniProt O60341). The assay can be described thus: biochemical.

With `CNNCCc1ccccc1.Cl.Cl` [9a], the IC50 (commonly the midpoint of a concentration-inhibition curve) worked out at 85 µM.
Turning to `CNNCCCc1ccccc1` [9d], it took 46.7 µM to reach half-maximal inhibition (IC50).
`NNCCc1ccc(NC(=O)CCCc2c[nH]c3ccccc23)cc1` [15b]: the kinact (in general, the rate constant of inactivation at saturating inhibitor) is 0.00283 s⁻¹. In addition, the kinact/KI (read-out: kinact/Ki(inact)) is 28300 M⁻¹ s⁻¹.
